Test results: PubChem BioAssay AID463193 (University of Pittsburgh Molecular Library Screening Center, 2010)
The entries are a selection whose mix differs from that of the whole data set. Calls of active or inactive are those of the source.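 The calls were made as follows: active = percentage of spot-positive cells more than 3 SD above its plate mean, without a fluorescence outlier flag or 80% toxicity; inconclusive = no clear call, values can overlap the other calls; inactive = the rest.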

Assay: GFP-LC3 puncta formation changes – imaging, high-content, MEF GFP-LC3, primary screen (AID 463193);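 also: spot-positive cell cutoff set from DMSO-treated cells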
Conditions: autophagy, at 10 µM, hits give high values

Compound | % cells with GFP-LC3 spots
COc1ccccc1OP(C)(=O)Nc1ccccc1Br (centres undefined) | inactive: 1.77%
CC(C)(C)c1ccc(OP(C)(=O)O)cc1 | inactive: 16.1%
CCN(/C(=N/P(=O)(N1CCOCC1)N1CCOCC1)N1CCOCC1)c1ccc(OC)cc1 | inactive: 11.1%
CP(=O)(Nc1ccc(Cl)cc1)Oc1ccc(F)cc1 (centres undefined) | inactive: 3.86%
CN(C)C(=O)c1c([N+](=O)[O-])cc([N+](=O)[O-])cc1[N+](=O)[O-] | inactive: 1.98%
CC(C)=N/N=C(\N)N[N+](=O)[O-] | inactive: 3.1%
CN(C)C(=O)OCCc1n(C)cc[n+]1C | inactive: 13.1%
CC1CCN(C(=O)Oc2c(Cl)cc(Cl)c3cccnc23)CC1 | inactive: 10.2%
CCN(CC)CC(O)COC(=O)C(O)(c1ccccc1)C1CCCCC1 (centres undefined) | inactive: 13.6%
COc1ccc(OP(C)(=O)Nc2ccc(Br)cc2)cc1 (centres undefined) | inactive: 0.85%
COc1ccc(C2=NCC(CBr)S2)cc1 (centres undefined) | inactive: 0.978%
O=[N+]([O-])c1cccc2n[nH]nc12 | inactive: 14.1%
CC(=O)N1C2C3N(C(C)=O)C1C1N(C(C)=O)C(C(N1C(C)=O)N3C(C)=O)N2C(C)=O | inactive: 4.39%
COc1ccccc1OP(C)(=O)Nc1c(C)n(C)n(-c2ccccc2)c1=O (centres undefined) | inactive: 12.7%
CP(=O)(Oc1ccccc1)N1CCOC1=O (centres undefined) | inactive: 6.67%
Cc1ccc(NP(=O)(Oc2ccccc2)Oc2ccccc2)nc1 | inactive: 0.446%
CCc1ccc(OP(C)(=O)Nc2cccnc2)cc1 (centres undefined) | inactive: 13.9%
CCc1nc2c(n1)c1c(non1O)c1c2no[n+]1[O-] | inactive: 18.7%
O=[N+]([O-])c1cc([N+](=O)[O-])c(CCNc2ccccc2)c([N+](=O)[O-])c1 | inactive: 4.7%
CP(=O)(Nc1ccc2c(c1)OCCO2)Oc1ccccc1 (centres undefined) | inactive: 6.37%
Cc1ccccc1NP(C)(=O)Nc1ccccc1C | inactive: 2.55%
CC(C)C(=O)NC(Sc1ccccc1)C(Cl)(Cl)Cl (centres undefined) | inactive: 3.07%

Compound | % cells with GFP-LC3 spots
O=P(Nc1nccs1)(c1ccccc1)c1ccccc1 | inactive: 10.8%
CCOP(C)(=S)SCC(=O)NC(C)(CC)C(=O)O (centres undefined) | inactive: 3.86%
CC(=O)NC(SC(=S)N(C)C)C(Cl)(Cl)Cl (centres undefined) | inactive: 10.8%
O=[N+]([O-])c1cc([N+](=O)[O-])c(NCC2CCS(=O)(=O)C2)c([N+](=O)[O-])c1 (centres undefined) | inactive: 0.537%
C(Cc1nn[nH]n1)Cc1nn[nH]n1 | inactive: 17.8%
O=C(OC1CN2CCC1CC2)c1cccc(Cl)c1 (centres undefined) | inactive: 1.14%
COc1ccc(OP(C)(=O)Nc2cccc(Br)c2)cc1 (centres undefined) | inactive: 1.64%
O=P(Nc1ccccn1)(c1ccc(Br)cc1)c1ccc(Br)cc1 | inactive: 17.4%
CN(C)CCOC(=O)C(O)(c1ccccc1)C1CCCCC1 (centres undefined) | inactive: 8.78%
COc1ccc(NP(C)(=O)Oc2ccccc2OC)cc1 (centres undefined) | inactive: 11.3%
COC(=O)c1cc2c(s1)N=C(c1ccccc1)N(C)P2(=O)N1CCOCC1 (centres undefined) | inactive: 1.94%
Cc1ccc(OP(=O)(Nc2ccccn2)Oc2ccc(C)cc2)cc1 | inactive: 8.75%
CC(=O)NC(SC(=S)N(CC(C)C)CC(C)C)C(Cl)(Cl)Cl (centres undefined) | inactive: 15.5%
CCN(CC)CCCOC(=O)C(O)(c1ccccc1)C1CCCCC1 (centres undefined) | inactive: 1.49%
CCC(=O)N1C2C3N(C(=O)CC)C1C1N(C(=O)CC)C(C(N1C(=O)CC)N3C(=O)CC)N2C(=O)CC | inactive: 4.77%
CP(=O)(Nc1ccccc1)Oc1ccc(F)cc1 (centres undefined) | inactive: 6.63%
CCNC(=S)/N=C(\N)N[N+](=O)[O-] | inactive: 10.9%
O=C(NC1CCS(=O)(=O)C1)NP(=S)(Oc1ccccc1)Oc1ccccc1 (centres undefined) | inactive: 7.17%
c1ccc(-c2nn[nH]n2)c(-c2nn[nH]n2)c1 | inactive: 1.22%
CCOC(=O)NC(Sc1ccccc1)C(Cl)(Cl)Cl (centres undefined) | inactive: 5.67%
CCOC(=O)c1ccc(NP(C)(=O)Oc2ccc(F)cc2)cc1 (centres undefined) | inactive: 10%
COc1ccc(OP(C)(=O)Nc2ccc(SC(F)(F)F)cc2)cc1 (centres undefined) | inactive: 5.84%

Compound | % cells with GFP-LC3 spots
O=C(OCCN1CCN(CCOCc2ccccc2)CC1)C(O)(c1ccccc1)c1ccccc1 | inactive: 9.05%
CC(=O)Nc1ccc(Oc2c([N+](=O)[O-])cc([N+](=O)[O-])cc2[N+](=O)[O-])cc1 | inactive: 1.18%
O=P1(Nc2nc3ccc(Cl)cc3s2)COc2ccccc2O1 (centres undefined) | inactive: 1.97%
CCOc1ccc(C2=NCC(CBr)S2)cc1 (centres undefined) | inactive: 0.629%
CP(=O)(Nc1ccccc1F)Oc1ccccc1 (centres undefined) | inactive: 6.99%
CC(C)(C)C(=O)NC(Sc1ccccc1)C(Cl)(Cl)Cl (centres undefined) | inactive: 2.27%
CC(C)c1ccc(OP(C)(=O)Nc2ccc(SC(F)(F)F)cc2)cc1 (centres undefined) | inactive: 25.9%
Cc1ccc(C)c(NP(C)(=O)Oc2ccccc2)c1 (centres undefined) | inactive: 5.14%
Cc1cc(C)cc(OP(C)(=O)Nc2ccccn2)c1 (centres undefined) | inactive: 2.16%
Cc1ccc(NCCc2c([N+](=O)[O-])cc([N+](=O)[O-])cc2[N+](=O)[O-])cc1 | inactive: 20.1%
CCOP(=O)(Nc1cccc2ccccc12)OCC | inactive: 9.44%
COc1cc(C(=O)NCC2(N3CCOCC3)CCCCC2)cc(Cl)c1OC(C)C | inactive: 7.87%
CCOC(=O)c1ccc(NP(C)(=O)Oc2cc(C)cc(C)c2)cc1 (centres undefined) | inactive: 5.34%
Cc1cccc(OCC(=O)OC2CN3CCC2CC3)c1 (centres undefined) | inactive: 7.44%
Cc1cc(C)cc(OP(C)(=O)Nc2ccc(C)cc2C)c1 (centres undefined) | inactive: 5.08%
O=[N+]([O-])c1ccc2c(c1)nnn2O | inactive: 16.7%
CC1=NCCc2c1[nH]c1ccccc21.O=[N+]([O-])c1cc([N+](=O)[O-])c(O)c([N+](=O)[O-])c1 | inactive: 6.88%
CCOP1(=S)c2c(C)nn(CCC#N)c2N=C(c2ccc(F)cc2)N1C (centres undefined) | inactive: 0.898%
CCOP1(=S)c2c(C)nn(CCC#N)c2N=C(c2ccccc2F)N1C (centres undefined) | inactive: 10.1%
O=P(Nc1nccs1)(Oc1ccccc1)Oc1ccccc1 | inactive: 6.98%
